# Ab-14 heavy chain CDR variants: yeast mating affinities

Binding partner: SARS-CoV-2 spike HR2 peptide, sequence PDVDLGDISGINAS.

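Phage display of a naive human antibody library on the peptide gave the parent. The library (AAYL49) carries one to three amino acid substitutions per variant, with no insertions or deletions. The scFvs were displayed on barcoded MATa yeast, the peptide on MATalpha yeast. The frequency of each diploid, read from paired DNA barcodes, reflects how well the two displayed proteins bind. Read counts were normalised to the haploid input and turned into Kd by a linear fit to BCL2-family pairs of known affinity, for each replicate. Mating was done three times.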

The variants keep the light chain, the linker and the frameworks of Ab-14 (scFv order VH, a (GGGGS)3 linker, VL).
VH: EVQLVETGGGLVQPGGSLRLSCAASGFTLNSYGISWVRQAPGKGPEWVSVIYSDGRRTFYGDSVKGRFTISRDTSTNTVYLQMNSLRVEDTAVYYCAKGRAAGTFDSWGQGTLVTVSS
VL: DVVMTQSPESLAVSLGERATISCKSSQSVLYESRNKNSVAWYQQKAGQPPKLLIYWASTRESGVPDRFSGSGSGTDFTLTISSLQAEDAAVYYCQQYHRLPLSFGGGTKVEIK

Substitutions are numbered in sequence along the VH above, starting at 1 (not Kabat). Scale: log10 of Kd in nM, estimated from mating counts; low values are strong binders. A pair that was not seen in that replicate is written "n.d."; this usually means weak binding, but a binder can also be missed. Background: pairings of library AAYL49 with three empty control strains gave a value in 15% of cases (median 4.06, 5th percentile 2.83). Values in that range, when seen in few replicates, are hard to tell from nonspecific mating. Also given: how often the same scFv was detected with the empty control strains, with their mean in brackets.

| changes | replicates, log10 nM | control signals |
|---|---|---|
| D54M G55C A101E | n.d. / n.d. / n.d. | 0/9 |
| S31V Y32W K65L | n.d. / n.d. / n.d. | 1/9 (2.35) |
| I34E R56T A102W | 2.86 / n.d. / n.d. | 1/9 (3.68) |
| S53K A102L S107L | 5.28 / 3.69 / n.d. | 4/9 (4.21) |
| G26R T28Q V64I | n.d. / n.d. / n.d. | 3/9 (4.32) |
| N30I Y60A K65G | n.d. / n.d. / n.d. | 0/9 |
| G61D G99S | n.d. / n.d. / n.d. | 0/9 |
| Y32C F59W G99Q | n.d. / 4.84 / n.d. | 4/9 (4.37) |
| Y32M Y60W T104Q | n.d. / n.d. / n.d. | 1/9 (4.30) |
| G26H Y60C G61Y | n.d. / n.d. / n.d. | 0/9 |
| S31A R56G T58N | n.d. / n.d. / 4.85 | 0/9 |
| S31L Y52A G103M | 5.35 / n.d. / n.d. | 1/9 (3.66) |
| G33F I34K G55T | 5.15 / 3.85 / 4.33 | 3/9 (4.70) |
| I34R T58R S107Y | n.d. / n.d. / n.d. | 0/9 |
| R57A Y60D S107E | n.d. / n.d. / n.d. | 2/9 (3.93) |
| G55K F59A A102G | 3.36 / 4.21 / n.d. | 5/9 (4.32) |
| T58L D62N A102C | n.d. / n.d. / n.d. | 1/9 (3.40) |
| N30H I34S R57N | n.d. / n.d. / n.d. | 1/9 (3.43) |
| F27D I51S R100M | 2.81 / n.d. / n.d. | 0/9 |
| I34M Y52T K65N | n.d. / 3.16 / n.d. | 0/9 |
| F27S S53V G103R | 3.46 / 3.71 / 3.48 | 5/9 (4.13) |
| S35L A101T | 3.31 / n.d. / 4.05 | 2/9 (4.16) |
| R100N A102E T104M | n.d. / n.d. / n.d. | 1/9 (4.53) |
| T58F Y60F K65W | n.d. / n.d. / n.d. | 0/9 |
| G26P S53K A101S | 2.78 / n.d. / n.d. | 3/9 (4.16) |
| G33M V64R A102K | n.d. / n.d. / 3.79 | 1/9 (5.49) |
| S31G Y52S S107Y | n.d. / 3.96 / 2.95 | 1/9 (4.76) |
| I34K Y52S G103C | 4.87 / 2.79 / n.d. | 3/9 (4.78) |
| G55T T58W V64N | n.d. / n.d. / n.d. | 0/9 |
| L29D S53C G103W | n.d. / n.d. / n.d. | 0/9 |
| F27K G55Y D106T | n.d. / n.d. / 5.55 | 1/9 (3.74) |
| G33D R56F G99M | n.d. / n.d. / n.d. | 0/9 |
| T28G Y52D Y60Q | n.d. / 3.47 / n.d. | 0/9 |
| T28R N30I Y60T | n.d. / n.d. / n.d. | 1/9 (2.82) |
| S35F T104K D106G | n.d. / n.d. / n.d. | 1/9 (3.86) |
| S31D F59W D106Y | n.d. / n.d. / n.d. | 0/9 |
| R57I S63E T104H | n.d. / n.d. / n.d. | 0/9 |
| S53P R100L D106M | 1.43 / 1.94 / 2.47 | 1/9 (4.25) |
| L29P S31R | 2.98 / n.d. / 3.86 | 2/9 (3.87) |
| G61A G99Q T104V | 0.84 / 1.18 / 1.49 | 3/9 (3.67) |
| F59E G99V T104K | 5.28 / n.d. / n.d. | 1/9 (3.22) |

From the list, the first 5 with no signal in any replicate:

| changes | replicates, log10 nM | control signals |
|---|---|---|
| D54M G55C A101E | n.d. / n.d. / n.d. | 0/9 |
| S31V Y32W K65L | n.d. / n.d. / n.d. | 1/9 (2.35) |
| G26R T28Q V64I | n.d. / n.d. / n.d. | 3/9 (4.32) |
| N30I Y60A K65G | n.d. / n.d. / n.d. | 0/9 |
| G61D G99S | n.d. / n.d. / n.d. | 0/9 |

Values reported by Engelhart et al. 2022, doi:10.1038/s41597-022-01779-4 (FLAb copy).